Data taken from US11931424B2, “Combination MCL-1 inhibitors with anti-body drug conjugates” (Gilead Sciences, Inc., priority 2021, dated 2024).
Counter-ions that a name gives are not always drawn.

Tested on: panel of breast cancer cell lines
Assay: Compound A with targeted agents and chemotherapies, 72-hour in vitro proliferation assays
Assay type: cell-based
Settings: 72-hour proliferation
[1] = CAL-120 cell line, compound A × partner

CC(=O)O[C@@]12CO[C@@H]1C[C@H](O)[C@@]1(C)C(=O)[C@H](O)C3=C(C)[C@@H](OC(=O)[C@H](O)[C@@H](NC(=O)OC(C)(C)C)c4ccccc4)C[C@@](O)([C@@H](OC(=O)c4ccccc4)[C@H]21)C3(C)C [Docetaxel]
Synergy Score (MDA-MB-436 cells, Compound A × partner agent): 1.52

CC1(C)CCC(c2ccc(Cl)cc2)=C(CN2CCN(c3ccc(C(=O)NS(=O)(=O)c4ccc(N[C@H](CCN5CCOCC5)CSc5ccccc5)c(S(=O)(=O)C(F)(F)F)c4)cc3)CC2)C1 [ABT-263]
HSA volume (HCC38, compound A × partner): 22.24

COc1cccc2c1C(=O)c1c(O)c3c(c(O)c1C2=O)C[C@@](O)(C(=O)CO)C[C@@H]3O[C@H]1C[C@H](N)[C@H](O)[C@H](C)O1 [Doxorubicin Hcl]
Best CI [1]: 0.64
Synergy Score [1]: 2.50
Best CI (HCC2218, compound A × partner): 0.35
Synergy Score (HCC2218, compound A × partner): 8.60
Best CI (HDQ-P1, compound A × partner): 1.48
